Measured values published in article doi:10.1101/2023.03.24.534094v2 (biorxiv, 2023).

Sequences of proteins named here, by UniProt entry; tags and fusion partners are left off. A change or cut given only in a name is not applied to a line headed by its entry.
UniProt Q9P289: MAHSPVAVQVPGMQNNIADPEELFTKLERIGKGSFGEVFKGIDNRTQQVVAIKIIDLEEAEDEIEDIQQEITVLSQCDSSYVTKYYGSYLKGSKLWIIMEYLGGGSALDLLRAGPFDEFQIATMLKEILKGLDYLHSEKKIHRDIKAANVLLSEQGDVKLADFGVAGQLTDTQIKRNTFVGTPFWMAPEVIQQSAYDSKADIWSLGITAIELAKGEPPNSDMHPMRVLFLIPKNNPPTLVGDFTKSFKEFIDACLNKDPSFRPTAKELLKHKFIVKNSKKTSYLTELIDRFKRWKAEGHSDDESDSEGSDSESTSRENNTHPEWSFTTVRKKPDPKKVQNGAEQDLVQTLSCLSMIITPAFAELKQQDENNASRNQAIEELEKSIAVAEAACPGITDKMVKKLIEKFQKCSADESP

Molecular target: MST4 (Homo sapiens, UniProt Q9P289)
Experiment: biochemical
Conditions: read-out: dTm MST4

## CN[C@@H]1C[C@H]2O[C@@](C)([C@@H]1OC)n1c3ccccc3c3c4c(c5c6ccccc6n2c5c31)C(=O)NC4 [Staurosporine]
  ΔTm at 10 µM: 7.3 °C
